# Screening data from PubChem.
# The sample as a whole holds a higher share of hits than the screen did.
# GIV-Gai inh = inhibitors of GIV GBA-motif binding to rat Galpha-i3; P08753; Galpha-i3/FITC-GIV peptide fluorescence polarization, 90 min; active compounds read low; scaled: aluminum fluoride 0%, vehicle 100%; percent of control (FP), % (test concentration not listed); 210,000 tested, 0.42% active; AID 1224905;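 active = replicate mean at 85% of control or lower, very high polarization wells dropped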;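 note: lower values mean more displacement of the GIV peptide from Galpha-i3; wells of about 15 µL received 100 nL stock; the first replicate is given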
# GIV Gai FP conf = confirmation of inhibitors of GIV binding to rat Galpha-i3. FITC-GIV peptide binding to Galphai3, fluorescence polarization; active compounds read low. actives 38% (n = 580). shares compounds with GIV-Gai inh. fluorescence polarization, mP at 100 µM;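 active = inhibition score of 15 or more, meaning 100 minus mean polarization as percent of control over three replicates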;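 note: lower mP means peptide displaced from Galphai3 so more inhibition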
# GIV Gai AS conf = confirmation of inhibitors of GIV binding to human Galpha-i3; shares compounds with GIV-Gai inh; AlphaScreen Galphai3-GIV binding, purified proteins, 90 min; active compounds read low; AlphaScreen counts at 100 µM; actives 39% (n = 580); AID 1259351;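 active = inhibition score at or above a set limit, where the score is 100 minus the three-replicate mean percent of control signal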
# Starred values were filed as active, the others as inactive.
SMILES,GIV-Gai inh,others
Oc1ccccc1C=Nc1cccc(N=Cc2ccccc2O)c1,100,
Oc1sc(-c2ccccc2)cc1C=Nc1ccccc1,84*,GIV Gai FP conf=74;GIV Gai AS conf=45653
CCOC(=O)c1cc(C#N)c(SCc2ccc(C(C)(C)C)cc2)nc1N,107,
CC(C)NC(=O)c1ccc(-c2nc3cc(NS(=O)(=O)Cc4cccc(F)c4)ccc3n2C)cc1,98,
CCC(=O)Nc1cc2nc3[nH]c(=O)n(C)c(=O)c3nc2cc1C,21*,GIV Gai FP conf=46*;GIV Gai AS conf=34033
CCCCCCC(=O)Nc1cc2nc3[nH]c(=O)n(C)c(=O)c3nc2cc1C,100,
CCCCCCC(=O)Nc1cc2nc3c(nc2cc1C)c(=O)n(C)c(=O)n3C,105,
NS(=O)(=O)c1ccc(-c2ccc(/C=C3\Sc4ccccc4C3=O)o2)cc1,253,
CC1(C)OC(=O)C(=Cc2ccc(-c3ccc(S(N)(=O)=O)cc3)o2)C(=O)O1,87,GIV Gai FP conf=67;GIV Gai AS conf=4423*
CC1=C(C#N)C(=O)NC(=O)/C1=C\c1ccc(-c2ccc(S(N)(=O)=O)cc2)o1,105,
Cc1noc(C(=O)N2CCN(C(c3ccccc3)c3ccccc3)CC2)c1Cl,100,
Cc1ccc(CN2CCN(C3CCN(S(=O)(=O)c4cccc5nsnc45)CC3)C(=O)C2=O)cc1,98,
Nc1c(C(=O)NCc2ccco2)nnn1-c1ccc(Cl)cc1,98,
CCN1C(=O)c2cccc3c(NC(=O)c4ccc(S(=O)(=O)N5CCCC5)cc4)ccc1c23,89,GIV Gai FP conf=79;GIV Gai AS conf=47241
CCN1C(=O)c2cccc3c(NC(=S)NC(=O)c4ccc(S(=O)(=O)N5CCCC5)cc4)ccc1c23,107,
CCN1C(=O)c2cccc3c(NC(=O)c4ccc(S(=O)(=O)N5CCCCC5C)cc4)ccc1c23 (stereo not given),118,
Cc1ccc(-c2nnc(NC(=O)CN3CCN(S(=O)(=O)c4ccc(C(C)C)cc4)CC3)s2)cc1,103,
O=C(CCc1nc2ccccc2n(CC(=O)Nc2cc(F)ccc2F)c1=O)NCc1ccccc1,97,
CC(NS(=O)(=O)c1cc(-c2nc(C(C)(C)C)cs2)cs1)c1ccccc1 (stereo not given),104,
COc1ccc(Nc2c3c4c(c(Br)ccc4n(C)c2=O)C(=O)c2ccccc2-3)cc1,109,

# Overlap with the part before: two entries; new compounds follow.
SMILES,GIV-Gai inh,others
CC(NS(=O)(=O)c1cc(-c2nc(C(C)(C)C)cs2)cs1)c1ccccc1 (stereo not given),104,
COc1ccc(Nc2c3c4c(c(Br)ccc4n(C)c2=O)C(=O)c2ccccc2-3)cc1,109,
CC(=O)c1c2c3c(c(Br)ccc3n(C)c1=O)C(=O)c1ccccc1-2,111,
Cn1c(=O)c(C(=O)CS(=O)(=O)O)c2c3c(c(Br)ccc31)C(=O)c1ccccc1-2,84*,GIV Gai FP conf=62;GIV Gai AS conf=5202*
COc1ccc(Br)cc1C1N(c2ccc(Cl)cc2)CCN1c1ccc(Cl)cc1,105,
Cc1ccc(NC(=O)Nc2cc3c(cc2N2CCCC2)n(C)c(=O)n3C)cc1C,104,
Cc1ccc(NC(=O)N2CCCC(c3nnc(C(=O)Nc4ccc(F)cc4)s3)C2)cc1C (stereo not given),104,
Oc1ccc2ccccc2c1/C=N/c1nccs1,100,
Cc1cc(N=Cc2c(O)ccc3ccccc23)no1,-9.8*,GIV Gai FP conf=13*;GIV Gai AS conf=20466*
Cn1c(/N=C/c2c(O)ccc3ccccc23)nc2ccc(Br)cc21,23*,GIV Gai FP conf=25*;GIV Gai AS conf=14331*
COc1cccc(/C=N/c2nc3ccccc3n2C)c1O,102,
Cc1ncc(CO)c(/C=N/N=C/c2c(O)ccc3ccccc23)c1O,117,
Cc1ccc(O)c(C=Nc2cc(C)on2)c1,98,
COc1ccccc1CNC(=O)CCc1c(OC)nc2c(c(C)nn2-c2cccc(F)c2)c1C,105,
CCN(CC)c1nn2c(=O)c(C(=O)NCC3CCCO3)cnc2s1 (stereo not given),100,
O=c1cc(Nc2ccccc2)c2ccccc2o1,98,
CCn1cc2c(n1)-c1c(oc(C(=O)Nc3ccc(Br)cc3F)c1C)CC2,96,
CCn1cc2c(n1)-c1c(oc(C(=O)Nc3ccc(Cl)cc3)c1C)CC2,81*,GIV Gai FP conf=54;GIV Gai AS conf=16212*
CCn1cc2c(n1)-c1c(oc(C(=O)NCc3cccnc3)c1C)CC2,83*,GIV Gai FP conf=53;GIV Gai AS conf=10636*
CCOCCCNC(=O)Cn1cc2c(n1)-c1c(oc(C(=O)N3CCCC3)c1C)CC2,97,
Cc1ccc(CNC(=O)c2oc3c(c2C)-c2nn(Cc4ccc(Cl)cc4)cc2CC3)cc1,97,
Cc1ccccc1CNC(=O)Cn1cc2c(n1)-c1c(oc(C(=O)N3CCCC3)c1C)CC2,114,
Cc1cccc(CNC(=O)c2oc3c(c2C)-c2nn(Cc4cccc(Cl)c4)cc2CC3)c1,101,
COCCNC(=O)Cn1cc2c(n1)-c1c(oc(C(=O)N3CCCC3)c1C)CC2,70*,GIV Gai FP conf=66*;GIV Gai AS conf=26569
CC(=O)Nc1ccc(NC(=O)c2oc3c(c2C)-c2nn(Cc4ccccc4Cl)cc2CC3)cc1,99,
CCc1ccc(NC(=O)c2cc(-c3ccccn3)n[nH]2)cc1,103,
CCc1ccc(NC(=O)c2cc(C3CC3)on2)cc1,100,
O=C(O)Cn1c2c(c3cc(F)ccc31)CCCC2,98,
Cc1c(C(=O)c2ccc(F)cc2)oc2ccccc12,108,
CCOc1ccc(C2C(N3C(=O)c4c(Cl)c(Cl)c(Cl)c(Cl)c4C3=O)C(=O)N2c2cc(F)ccc2C)cc1 (stereo not given),105,
CC1CCC(C(C)C)C(=O)/C1=C/c1ccc(Br)cc1 (stereo not given),106,
O=C(CSc1nc2cc(C(=O)N3CCOCC3)ccc2c(=O)n1CCc1ccccc1)c1ccccc1,105,
N#CC1=C(N)OC2=C(C(=O)CCC2)C12C(=O)N(CC(N)=O)c1ccccc12 (stereo not given),100,
O=C1CCCC2=C1C1(O)C(=O)c3ccccc3C1(O)O2 (stereo not given),59*,GIV Gai FP conf=54*;GIV Gai AS conf=53411
N#CC1=C(N)OC2=C(C(=O)CCC2)C12C(=O)Nc1ccccc12 (stereo not given),100,
Cc1oc(-c2cccc(Cl)c2)nc1CN1C(=O)CCCc2ccccc21,100,
CC(C)C(=O)Nc1cc(Cl)ccc1OCc1cc(=O)n2ccsc2n1,108,
O=C(COc1ccc(-c2cnc3ccccc3n2)cc1)NCc1ccccn1,104,
O=c1[nH]c(NCCO)c(I)c(=O)[nH]1,57*,GIV Gai FP conf=43*;GIV Gai AS conf=2885*
O=c1[nH]c(NCCO)nc2ccccc12,102,
Cc1[nH]c(=O)[nH]c(=O)c1S(=O)(=O)NCCO,103,
CC(NC(=O)Cn1c(-c2cccs2)cc2ccccc21)c1ccccc1 (stereo not given),102,

# Entries above that have an NH in an aromatic ring (6):
SMILES,GIV-Gai inh,others
CCC(=O)Nc1cc2nc3[nH]c(=O)n(C)c(=O)c3nc2cc1C,21*,GIV Gai FP conf=46*;GIV Gai AS conf=34033
CCCCCCC(=O)Nc1cc2nc3[nH]c(=O)n(C)c(=O)c3nc2cc1C,100,
CCc1ccc(NC(=O)c2cc(-c3ccccn3)n[nH]2)cc1,103,
O=c1[nH]c(NCCO)c(I)c(=O)[nH]1,57*,GIV Gai FP conf=43*;GIV Gai AS conf=2885*
O=c1[nH]c(NCCO)nc2ccccc12,102,
Cc1[nH]c(=O)[nH]c(=O)c1S(=O)(=O)NCCO,103,

# (continued)
SMILES,GIV-Gai inh,others
Cc1ccc(-c2csc(-c3c(N)c(C(=O)c4ccc5c(c4)OCO5)n4ccccc34)n2)cc1C,89,
Nc1c(-c2nc(-c3ccc4c(c3)OCO4)cs2)c2ccccn2c1C(=O)c1ccccc1,101,
Nc1c(-c2nc(-c3ccc(F)cc3)cs2)c2ccccn2c1C(=O)c1ccc2c(c1)OCO2,75*,GIV Gai FP conf=80;GIV Gai AS conf=34447
CCc1cc(C2CCCN2S(=O)(=O)c2ccc(CC(C)C)cc2)on1 (stereo not given),105,
O=C(Nc1ccccc1)c1cnn2c1NC(c1ccccc1)=CC2c1ccccc1 (stereo not given),100,
Clc1cccc(-c2noc3ncnc(N4CCC(N5CCCCC5)CC4)c23)c1,109,
COc1ccc(C(=O)NCc2nnc(SCC(=O)N3N=C(c4ccc(OC)cc4)CC3c3ccc(F)cc3)n2C)cc1 (stereo not given),109,
CCOC(=O)COc1cccc(Cl)c1,108,
